Target: T1, cloned rat NPFF1 receptor (Rattus norvegicus, UniProt Q9EP86)
T1 construct: expressed in transfected cells; host or cells: COS-7 cells, transient; membranes
Assay: Radioligand binding to cloned rat NPFF1 receptor, membranes of transiently transfected COS-7 cells
Conditions: competition of [125I]D-Tyr-NPFF binding; transiently transfected COS-7 membranes
Method: Transfected cells from culture flasks are scraped into 5 ml of 20 mM Tris-HCl, 5 mM EDTA, pH 7.5, and lysed by sonication. The cell lysates are centrifuged at 1000 rpm for 5 min. at 4° C., and the supernatant is centrifuged at 30,000× g for 20 min. at 4° C. […] Optimal membrane suspension dilutions, defined as the protein concentration required to bind less than 10% of the added radioligand, […], unlabeled compounds, and binding buffer to a final volume of 250 μl. In equilibrium saturation binding assays membrane preparations are incubated in the presence of increasing concentrations of [^3H]-labeled compound.
Competition assay: 50 pM radioligand, 10–12 points. Binding reaction mixtures are incubated for 2 hr at 25° C., and the reaction stopped by filtration through a double layer of GF filters treated with 0.1% polyethyleneimine, using a cell harvester. Wash buffer: 50 mM Tris-HCl, 0.1% BSA. Radioactivity may be measured by scintillation counting and data are analyzed by a computerized non-linear regression program. Non-specific binding is defined as the amount of radioactivity remaining after incubation of membrane protein in the presence of 1 μM final concentration […]. Protein concentration may be measured by the Bradford method using Bio-Rad Reagent, with bovine serum albumin as a standard. […]

By UniProt entry, the sequences of proteins in these tests, tags left out. Where a name states a change or a piece, a line headed by the entry shows the natural chain unless it says otherwise.
UniProt Q9EP86: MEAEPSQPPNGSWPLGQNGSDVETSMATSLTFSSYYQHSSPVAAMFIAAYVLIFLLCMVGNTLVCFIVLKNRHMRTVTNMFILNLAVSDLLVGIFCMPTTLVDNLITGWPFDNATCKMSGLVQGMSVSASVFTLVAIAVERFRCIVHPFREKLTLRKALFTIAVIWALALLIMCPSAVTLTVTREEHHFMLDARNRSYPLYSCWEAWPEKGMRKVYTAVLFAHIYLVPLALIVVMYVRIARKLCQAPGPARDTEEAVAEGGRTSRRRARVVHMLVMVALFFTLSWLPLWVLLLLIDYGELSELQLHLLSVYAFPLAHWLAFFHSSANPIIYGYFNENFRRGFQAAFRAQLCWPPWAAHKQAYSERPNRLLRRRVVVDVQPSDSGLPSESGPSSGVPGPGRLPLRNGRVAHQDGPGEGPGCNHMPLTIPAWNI

Substance | pKi for cloned rat NPFF1 receptor binding in COS-7 cells, MEAN
a-MSH | 5.000
substance P | 5.000

— patent US7041461B2 (H. Lundbeck A/S, priority 1998, dated 2006)
